Results: US4906655A, “Novel 1,2-cyclohexylaminoaryl amides useful as analgesic agents” (dated 1990)

Tested on: rat
Test: rat paw pressure test (analgesia)
Conditions: dose required to produce 50% of the maximum possible analgesic effect, single experiment, six animals per dose level

Structure (SMILES)	Rat Paw Pressure MPE50 IV
CN(C(=O)Cc1cccc2c1CCO2)[C@H]1CC[C@@]2(CCCO2)C[C@@H]1N1CCCC1 (single isomer, unassigned)	0.71 mg/kg
CN(C(=O)Cc1cccc2c1COC2=O)[C@H]1CC[C@@]2(CCCO2)C[C@@H]1N1CCCC1 (single isomer, unassigned)	0.1 mg/kg
